Values of other authors in paper PMC8287861, “QPX7728, An Ultra-Broad-Spectrum B-Lactamase Inhibitor for Intravenous and Oral Therapy: Overview of Biochemical and Microbiological Characteristics” (Frontiers in Microbiology, 2021).

Target: NDM-1
Set-up: method as in Tsivkovski et al. (2020)
Conditions: ref Tsivkovski et al. (2020)

In the case of `O=C(O)c1c(F)ccc2c1OB(O)[C@@H]1C[C@H]21` [QPX7728], the Kd (NDM-1 (text b23 calls it Ki)) is given as 32 ± 14 nM and the Ki (NDM-1, competitive inhibitor) is given as ~32 nM.
